Results from US20100021936A1, “Sensor for Spores” (priority 2007, published 2010).

Test system: germination protease (GPR)

O=C(O)c1cccc(C(=O)O)n1 [Ca-DPA, dipicolinic acid]
activation of GPR and hologram degradation: the enzyme is activated and degrades the hologram
